Test system: ABCB1 or ABCC1
Assay: Rhodamine 123 apparent permeability across BBB chip with efflux pump blockage by metabolic inhibitors
Format: in vitro ADME, human
Settings: FIG. 9A

rhodamine 123
Papp of Rhodamine 123 on blockage of ABCB1 or ABCC1 (hypoxia-stimulated BBB Chip, metabolic inhibitors): significantly increased
change of Rhodamine 123 penetration on blockage of ABCB1 or ABCC1 (normoxia control BBB chip): did not show any change
